From US8901125B2, “Substituted bicyclic alkoxy pyrazole analogs as allosteric modulators of mGluR5 receptors” (Vanderbilt University, priority 2012, dated 2014)

Amino acid sequences for entries named in this document (tags omitted). Residues count along the entry.
UniProt P41594, 21-1180 isoform 2 limits assumed: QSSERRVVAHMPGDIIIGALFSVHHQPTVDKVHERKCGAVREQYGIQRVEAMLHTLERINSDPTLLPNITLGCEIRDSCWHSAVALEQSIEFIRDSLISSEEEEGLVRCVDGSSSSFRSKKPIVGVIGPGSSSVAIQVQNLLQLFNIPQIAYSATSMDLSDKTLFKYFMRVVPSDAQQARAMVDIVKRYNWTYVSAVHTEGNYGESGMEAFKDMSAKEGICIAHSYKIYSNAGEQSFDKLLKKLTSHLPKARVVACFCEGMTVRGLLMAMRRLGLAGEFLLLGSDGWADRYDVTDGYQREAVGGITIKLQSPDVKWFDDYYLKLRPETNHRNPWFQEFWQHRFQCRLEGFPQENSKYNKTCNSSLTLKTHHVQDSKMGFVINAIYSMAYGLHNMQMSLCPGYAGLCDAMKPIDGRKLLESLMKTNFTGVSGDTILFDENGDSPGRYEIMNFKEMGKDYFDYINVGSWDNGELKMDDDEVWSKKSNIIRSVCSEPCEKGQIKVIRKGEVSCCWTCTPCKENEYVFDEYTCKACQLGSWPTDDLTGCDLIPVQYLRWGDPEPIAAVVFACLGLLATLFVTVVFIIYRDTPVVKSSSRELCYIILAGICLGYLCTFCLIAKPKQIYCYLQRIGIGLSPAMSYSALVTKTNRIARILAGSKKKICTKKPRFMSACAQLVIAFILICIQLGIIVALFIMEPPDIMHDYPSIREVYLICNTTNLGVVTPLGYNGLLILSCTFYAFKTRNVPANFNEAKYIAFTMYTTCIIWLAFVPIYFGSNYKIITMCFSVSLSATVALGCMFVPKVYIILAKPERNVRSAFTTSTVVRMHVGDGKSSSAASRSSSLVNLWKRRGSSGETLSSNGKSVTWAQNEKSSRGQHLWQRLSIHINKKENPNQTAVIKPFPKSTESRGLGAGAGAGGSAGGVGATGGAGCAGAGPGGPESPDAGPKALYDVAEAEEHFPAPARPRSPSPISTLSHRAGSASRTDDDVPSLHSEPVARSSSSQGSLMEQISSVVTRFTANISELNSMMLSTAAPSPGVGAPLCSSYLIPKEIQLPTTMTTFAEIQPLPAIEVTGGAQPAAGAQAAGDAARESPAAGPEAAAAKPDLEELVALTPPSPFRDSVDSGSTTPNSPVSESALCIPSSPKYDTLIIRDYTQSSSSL

Molecular target: human mGluR5a receptor (Homo sapiens, UniProt P41594)
Experiment: Cell-based functional assay (Ca2+ mobilization, FDSS), potentiation of glutamate EC20 response
Details: H10H cell line; for Emax (%): maximum % effect in the concentration-response curve as percent of maximal glutamate response, glutamate EC20; for pEC50: potentiation in presence of glutamate EC20, concentration in mol/L

| SMILES | Emax (%) | pEC50 |
| --- | --- | --- |
| O=C1c2cc(OCc3ccccc3)nn2CCN1Cc1cccc(F)c1 | 49 | 7.11 |
| C[C@@H]1Cn2nc(OCc3ccccc3)cc2C(=O)N1c1ccc(F)cn1 | 50 | 5.63 |
| CC1CN(c2ccc(F)cn2)C(=O)c2cc(OCc3ccccc3)nn21 (single isomer, unassigned) | 51 | <5.00 |
| Cc1cccc(COc2cc3n(n2)CCN(c2ccc(F)cc2)C3=O)c1 | 36 | 7.10 |
| O=C1c2cc(OCc3ccccc3)nn2CCN1Cc1ccccc1F | 55 | 6.93 |

Further lines, results first:

| Emax (%) | pEC50 | SMILES |
| --- | --- | --- |
| 50 | 6.07 | COc1ccnc(N2CCn3nc(OCc4ccccc4)cc3C2=O)n1 |
| 30 | 6.03 | COc1nccnc1N1CCn2nc(OCc3ccccc3)cc2C1=O |
| 62 | 6.48 | O=C1c2cc(OCc3ccccc3)nn2CCN1Cc1ccc(F)cc1 |
